The values that follow come from patent publication US6300353A, “Azoles for treatment of fungal infections” (Basilea Pharmaceutica AG, a Swiss Company, priority 1998, dated 2001).

Amino acid sequences for entries named in this document (tags omitted).
UniProt P11712, whole entry: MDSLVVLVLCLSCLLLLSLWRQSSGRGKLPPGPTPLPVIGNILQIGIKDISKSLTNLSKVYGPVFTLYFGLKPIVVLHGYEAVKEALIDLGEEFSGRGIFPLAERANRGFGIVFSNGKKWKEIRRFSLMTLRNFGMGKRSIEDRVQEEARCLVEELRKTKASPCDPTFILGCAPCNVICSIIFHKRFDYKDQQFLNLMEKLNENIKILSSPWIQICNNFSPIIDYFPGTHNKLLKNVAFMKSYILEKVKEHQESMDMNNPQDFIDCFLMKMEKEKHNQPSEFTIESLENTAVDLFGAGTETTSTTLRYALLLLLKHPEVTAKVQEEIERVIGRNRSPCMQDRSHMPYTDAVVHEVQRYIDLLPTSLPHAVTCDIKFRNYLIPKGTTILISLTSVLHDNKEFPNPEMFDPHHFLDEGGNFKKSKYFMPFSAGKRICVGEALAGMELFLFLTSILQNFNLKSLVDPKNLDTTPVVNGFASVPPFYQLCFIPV

The target of the experiment is CYP2C9 (Homo sapiens, UniProt P11712). The experiment can be described thus: In vitro P450 inhibitory activity (CYP2C9, tolbutamide 4-hydroxylation), human liver microsomes.

In general, IC50 refers to the concentration needed to halve the response being measured. Read a high IC50 as lower potency. On to `OC(Cn1cncn1)(Cn1cncn1)c1ccc(F)cc1F` [Fluconazole, reference compound], for which the IC50 was > 50 µM.
